According to ChEMBL document CHEMBL2413064, “Synthesis and α-glucosidase inhibitory activity evaluation of N-substituted aminomethyl-β-d-glucopyranosides” (Bioorg Med Chem, 2013):
pIC50: −log10 of the molar value.

The chains behind the UniProt entries cited, without tags or fusion partners. Residues count along the entry.
UniProt P23739, 1014-1841 limits assumed: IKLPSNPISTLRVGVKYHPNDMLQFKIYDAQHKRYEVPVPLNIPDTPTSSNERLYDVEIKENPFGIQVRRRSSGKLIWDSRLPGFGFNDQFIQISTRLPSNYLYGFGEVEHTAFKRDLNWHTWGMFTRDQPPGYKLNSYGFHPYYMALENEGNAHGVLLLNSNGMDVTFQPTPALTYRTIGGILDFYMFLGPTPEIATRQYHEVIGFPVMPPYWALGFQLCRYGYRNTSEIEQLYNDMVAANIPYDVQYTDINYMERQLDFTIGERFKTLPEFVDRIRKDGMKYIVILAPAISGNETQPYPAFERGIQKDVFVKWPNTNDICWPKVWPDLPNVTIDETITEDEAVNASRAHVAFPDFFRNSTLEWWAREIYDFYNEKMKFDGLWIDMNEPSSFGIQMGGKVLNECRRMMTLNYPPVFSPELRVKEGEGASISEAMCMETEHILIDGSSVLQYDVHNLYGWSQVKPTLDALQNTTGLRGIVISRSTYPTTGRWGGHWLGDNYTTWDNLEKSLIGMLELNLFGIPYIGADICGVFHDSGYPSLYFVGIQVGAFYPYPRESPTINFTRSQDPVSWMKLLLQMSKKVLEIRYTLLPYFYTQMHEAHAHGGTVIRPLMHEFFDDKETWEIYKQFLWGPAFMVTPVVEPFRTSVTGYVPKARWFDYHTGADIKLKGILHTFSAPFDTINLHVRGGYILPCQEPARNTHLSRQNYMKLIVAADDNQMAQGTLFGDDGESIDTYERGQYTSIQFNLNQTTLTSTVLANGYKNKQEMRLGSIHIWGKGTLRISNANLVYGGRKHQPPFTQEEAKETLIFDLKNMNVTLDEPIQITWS
UniProt P23739, 1-1013 limits assumed: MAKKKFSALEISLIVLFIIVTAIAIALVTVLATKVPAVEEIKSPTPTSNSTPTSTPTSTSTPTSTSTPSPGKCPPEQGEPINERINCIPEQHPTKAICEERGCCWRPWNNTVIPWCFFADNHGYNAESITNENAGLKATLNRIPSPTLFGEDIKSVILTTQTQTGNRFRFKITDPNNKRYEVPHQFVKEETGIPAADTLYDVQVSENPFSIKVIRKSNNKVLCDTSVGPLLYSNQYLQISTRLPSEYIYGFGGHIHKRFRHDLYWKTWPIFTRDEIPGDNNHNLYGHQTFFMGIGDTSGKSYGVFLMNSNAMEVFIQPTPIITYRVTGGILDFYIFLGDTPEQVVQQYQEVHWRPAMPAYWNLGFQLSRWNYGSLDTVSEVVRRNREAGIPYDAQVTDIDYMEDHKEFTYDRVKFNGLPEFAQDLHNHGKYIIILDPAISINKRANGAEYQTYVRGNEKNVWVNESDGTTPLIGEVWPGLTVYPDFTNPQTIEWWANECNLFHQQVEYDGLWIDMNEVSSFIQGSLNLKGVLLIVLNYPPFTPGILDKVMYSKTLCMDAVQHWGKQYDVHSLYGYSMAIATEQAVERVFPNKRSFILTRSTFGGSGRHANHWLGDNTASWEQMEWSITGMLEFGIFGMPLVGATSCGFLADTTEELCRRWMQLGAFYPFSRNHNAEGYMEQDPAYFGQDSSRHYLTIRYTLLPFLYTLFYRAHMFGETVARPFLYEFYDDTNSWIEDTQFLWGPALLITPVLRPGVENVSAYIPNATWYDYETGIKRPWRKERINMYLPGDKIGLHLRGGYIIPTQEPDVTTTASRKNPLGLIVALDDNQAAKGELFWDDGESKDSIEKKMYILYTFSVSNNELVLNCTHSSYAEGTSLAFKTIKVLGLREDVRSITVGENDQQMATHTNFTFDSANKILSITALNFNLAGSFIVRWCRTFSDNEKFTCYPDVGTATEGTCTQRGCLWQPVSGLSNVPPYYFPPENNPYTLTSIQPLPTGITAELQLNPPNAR

Target: Sucrase-isomaltase, intestinal (Rattus norvegicus, UniProt P23739)
Assay: Inhibition of rat intestinal sucrase using sucrose as substrate assessed as D-glucose release from substrate preincubated for 15 mins measured after 60 mins

## C[C@H]1O[C@H](O[C@H]2[C@H](O)[C@@H](O)[C@@H](O[C@H]3[C@H](O)[C@@H](O)C(O)O[C@@H]3CO)O[C@@H]2CO)[C@H](O)[C@@H](O)[C@@H]1N[C@H]1C=C(CO)[C@@H](O)[C@H](O)[C@H]1O (stereo partly specified) [ACARBOSE]
  pIC50: 6.40
